In US20250144220A1, “CONJUGATE FOR PREVENTING AND TREATING VIRAL INFECTIONS AND USE THEREOF” (priority 2021, published 2025) one finds IC50 data, which are given here for one molecule.

The test deals with Influenza A H1N1 (A/California/04/2009) Neuraminidase/NA (Influenza A virus (A/California/04/2009(H1N1)), UniProt C3W5S3). Kind of test: biochemical.

In the case of `CC(=O)N[C@H]1[C@H]([C@H](O)[C@H](O)CO)OC(C(=O)O)=C[C@@H]1N=C(N)N` [Zanamivir, zanamivir, reference compound], half-maximal inhibition (IC50) was put at 1 nM.
